# Measured affinities in a library of Ab-14 heavy chain variants

From the AlphaSeq antibody data of Li et al. 2023 (doi:10.1038/s41467-023-39022-2), copy in the FLAb collection.

The target is the same throughout: PDVDLGDISGINAS, from the HR2 region of SARS-CoV-2 spike.

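The variants were designed computationally from a first round of random CDR variants and then made and measured. Group labels follow the data file (Ctrl: baseline library sampled from a position-specific scoring matrix, with some repeated check sequences; Rand: our label for a block that the file lists under HC and that is probably the random mutants of the ten best first-round binders; En: ensemble of fine-tuned language models; GP: Gaussian process model; GPLM: also part of the Gaussian process libraries; HC: hill climbing; Gen: genetic algorithm; Gibbs: Gibbs sampling; a sequence that several methods proposed may carry one label only). The scFvs were displayed on barcoded MATa yeast, the peptide on MATalpha yeast. Mating (16 h, 30 °C) was followed by selection of diploids and sequencing of their barcodes. A regression on co-assayed BCL2-family reference pairs converts the normalised counts of each replicate to an apparent Kd. Mating was done six times.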

Each scFv is VH, a (GGGGS)3 linker, VL, as in the parent Ab-14, and differs from it in the CDRs of the heavy chain only.
VH: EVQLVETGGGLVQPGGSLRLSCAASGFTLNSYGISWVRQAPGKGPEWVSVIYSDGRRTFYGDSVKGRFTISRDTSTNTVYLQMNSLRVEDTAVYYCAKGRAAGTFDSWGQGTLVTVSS
VL: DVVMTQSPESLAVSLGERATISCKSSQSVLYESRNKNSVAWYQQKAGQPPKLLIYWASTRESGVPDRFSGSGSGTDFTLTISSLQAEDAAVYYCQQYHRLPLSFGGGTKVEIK

Each variant is given by its three heavy chain CDRs, as the data file delimits them; those of the parent are GFTLNSYGIS, VIYSDGRRTFYGDSVK, GRAAGTFDS.
Numbers give log10(Kd / nM), so 0 is 1 nM and 3 is 1 µM. Smaller is tighter.
Averages over replicates are reported, and they cover detected replicates only.
A pair that was not seen in any replicate is written "nd"; this usually means weak binding, but a binder can also be missed.
A sequence measured in both rounds can read differently, since the two assays cover different ranges.
In the paper, a design with two or fewer of six values counts as a poor binder.
Of ten entries with the parent sequence, four were seen in most replicates (averages 0.34 to 2.37), three in one and three in none, so single entries are noisy.
Three control strains display no target. For all heavy chain designs, 1% of the pairings with them gave a signal, with a median of 2.08 and one signal in twenty below 0.84, so weak values seen in few replicates may be background. For each scFv, signals with the empty controls are counted beside the result.

"log10 Kd (nM), mean",replicates with signal,empty controls,CDR-H1,CDR-H2,CDR-H3,group
nd,0 of 6,0 of 18,GFDLNEYGIS,VIYADGVRTAYAESVK,GQNAGTFDV,En_Gen
nd,0 of 6,0 of 18,GQDLAEYGIS,VIYADGKRTYYAQDVK,GTNVGQGDT,En_Gibbs
-0.48,6 of 6,0 of 18,GFDLNEYGIS,VIYADGMRTFYADSVK,GNQAGTFDL,En_Gen
-0.27,6 of 6,0 of 18,GFDLDEYGIS,VIYADGMRTFYADSVK,GETAGTFDI,En_Gen
-0.46,6 of 6,0 of 18,GFDLNEYGIS,VIYADGMRTYYADSVK,GNVAGTFDM,En_Gen
0.40,6 of 6,1 of 18,GFDLNEYGIS,VIYADGMRTSYADSVK,GEVAGTFDM,En_Gen
1.12,5 of 6,0 of 18,GFTINSYGIS,VIYSDGRRTFYSDSVK,GNAAGTFDS,GPLM_HC
1.36,5 of 6,2 of 18,GFSLNSYGIS,VIYSDGRRTFYVDSVK,GRLAGTFDT,GP_Gibbs
nd,0 of 6,0 of 18,GFTLNEYGIS,VIYSDGRRTFYGDRVK,GRAPGTFHS,Ctrl
nd,0 of 6,1 of 18,GFDLEEYGIS,VIYADGMRTQYINAVK,GIIGDNMDL,En_Gibbs
0.21,6 of 6,1 of 18,GFELNSYGIS,VIYSDGRRTFYGDSVK,GQTAGTFDV,GPLM_Gibbs
nd,0 of 6,0 of 18,GFSLNEYGIS,VIYADGQRKSYADNVK,GYQGSRVSL,En_Gibbs
1.87,1 of 6,0 of 18,GFDINEMGIS,VIYADGQRLAYAQEVK,GENTGTFTE,En_Gibbs
-0.30,6 of 6,0 of 18,GFDLESYGIS,VIYADGSRTAYADSVK,GNVAGTFDI,En_HC
-0.30,6 of 6,0 of 18,GFELNEYGIS,VIYSDGRRTFYGDSVK,GRTAGTFDG,GP_Gen
nd,0 of 6,0 of 18,GNDLDEFGIS,VIYADGSRASYADKVK,GLNGGQLIV,En_Gibbs
0.63,6 of 6,0 of 18,GFDLNEYGIS,VIYADGVRTAYSDDVK,GNVAGTFDV,En_Gen
1.33,5 of 6,0 of 18,GFTLNMYGIS,VIYADGRRTFYGGFVK,GQAPGTFDS,Ctrl
0.47,6 of 6,1 of 18,GFTLNSYGIS,VIYSDGLRTFYSDSVK,GYHAGTFDS,Ctrl
nd,0 of 6,0 of 18,GDQLDEYGIS,VIYADGMRTAYADSFK,GNKSVIIGI,En_Gibbs
-0.41,6 of 6,0 of 18,GFDLNEYGIS,VIYADGRRTAYADDVK,GNVAGTFDI,En_Gen
nd,0 of 6,0 of 18,GFDLDEYGVS,VIYADGERTFYADKVK,GTHGGTRDI,En_Gibbs
0.47,6 of 6,0 of 18,GFDLNSYGIS,VIYSDGRRTFYADSVK,GRAAGTFDT,GPLM_HC
nd,0 of 6,0 of 18,GKDLEEYGIS,VIYADGRRSDYTDNVK,GHNGNIFMM,En_Gibbs
1.57,1 of 6,0 of 18,GFTRNEYGIS,VIYSDGRRTFYTDSVK,GRFQGTFDS,Rand
0.35,6 of 6,0 of 18,GFQLNDYGIS,VIYSDGRRTFYSDSVK,GKAAGTFDS,GP_HC
-0.85,6 of 6,0 of 18,GFDLNEYGIS,VIYADGRRTFYSDNVK,GTVAGTFDT,En_HC
0.11,6 of 6,1 of 18,GFTLNEYGIS,VIYSDGRRTFYTDSVK,GHAAGTFDL,GP_HC
nd,0 of 6,0 of 18,GFTLDSYGIS,VIYSDGRRTFYSDSVK,GSAAGTFDS,GPLM_HC
1.78,2 of 6,0 of 18,GFTLDSYGIS,VIYSDGRRTFYGDSVK,GNAAGTFDR,GP_HC
0.70,6 of 6,0 of 18,GFDLNSYGIS,VIYSDGKRTFYGDKVK,GRQAGTFDS,GP_Gibbs
1.14,6 of 6,1 of 18,GFTLNSYGIS,VIYSDGRRTFYADAVK,GEAAGTFDS,GPLM_Gen
nd,0 of 6,0 of 18,GFELTEYGIS,VIYADGHRSFVTDTVK,GQNAGAFNV,En_Gibbs
0.30,6 of 6,2 of 18,GFELNQYGIS,VIYSDGRRTFYGDSVK,GRQAGTFDS,GP_Gen
0.25,6 of 6,0 of 18,GFDLNEYGIS,VIYADGSRTAYADSVK,GNEAGTFDM,En_Gen
nd,0 of 6,0 of 18,GFTLNSYGIS,VIYSDGRRTSYIDSVK,GRVQGTFDP,Ctrl
0.09,6 of 6,1 of 18,GFDLNEYGIS,VIYADGMRTMYTDSVK,GNEAGTFDS,En_HC
-0.08,6 of 6,0 of 18,GFDLNEYGIS,VIYADGMRTVYTDSVK,GNEAGTFDS,En_HC
1.27,2 of 6,0 of 18,GFDLNEYGIS,VIYADGMRTAYVDSVK,GQNAGTFDV,En_Gen
0.57,4 of 6,0 of 18,GFDLNSYGIS,VIYSDGRRTFYGDSVK,GLTAGTFDS,GPLM_Gen
0.93,5 of 6,0 of 18,GFTLESYGIS,VIYADGRRTFYGDHVK,GRAAGTFDS,GP_HC
nd,0 of 6,0 of 18,GFTLNSYGIS,VIYSDGRRTFYSDSVK,GKAAGIFDT,GP_HC
nd,0 of 6,0 of 18,GNSLNSFGIS,VIYSDGRRTFIADSVK,GPAAGDFDS,Ctrl
0.33,6 of 6,0 of 18,GFSLDEYGIS,VIYADGVRKHYMDSVK,GNIAGTLFA,En_Gibbs
nd,0 of 6,0 of 18,GFNLNSYGIS,VIYSDGRRTFYIDPVK,GRQAGTFDS,GP_Gibbs
-0.52,6 of 6,0 of 18,GFDLNEYGIS,VIYADGMRTAYADNVK,GQTAGTFDI,En_Gen
nd,0 of 6,1 of 18,GFHLNSYGIS,VIYSDGRRTFYGDSVK,GRAAGLFDS,Ctrl
nd,0 of 6,1 of 18,GQPLNSYGIS,VIYSDGIRTFYGDSVK,GRLAGTFDV,Ctrl
1.45,6 of 6,2 of 18,GFSLNSYGIS,VIYSDGRRTFYADRVK,GEAAGTFDK,GP_Gibbs
-0.66,6 of 6,1 of 18,GFDLNEYGIS,VIYADGRRTFYSDSVK,GEIAGTFDQ,En_HC
nd,0 of 6,0 of 18,GFDLNEYGIS,VIYADGIRTAYSDQVK,SRDGIVILF,En_Gibbs
-0.70,6 of 6,0 of 18,GFDLEDYGIS,VIYADGKRTFYADSVK,GNVAGTFDS,En_HC
nd,0 of 6,0 of 18,GFTLNSYGIS,VIYRDGFRTAYSDRVK,GRAAGTFDS,Ctrl
0.32,6 of 6,1 of 18,GFDLNEYGIS,VIYADGRRTFYTDSVK,GTFAGTFDQ,En_HC
-0.29,6 of 6,0 of 18,GFDLDEYGIS,VIYADGQRTAYADSVK,GQNAGTFDM,En_Gen
1.49,6 of 6,0 of 18,GFHLNEYGIS,VIYSDGRRTFYIDSVK,GRLAGTFDS,GP_HC
-0.49,6 of 6,0 of 18,GFDLNEYGIS,VIYADGRRTFYTDSVK,GTHAGTFDV,En_HC
-0.24,6 of 6,0 of 18,GFDLNEYGIS,VIYADGTRTAYADSVK,GNVAGTFDV,En_Gen
-0.39,6 of 6,0 of 18,GFDLNEYGIS,VIYADGMRTAYADKVK,GNVAGTFDQ,En_Gen

The first 8 entries again:

CDR-H1,CDR-H2,CDR-H3,group,"log10 Kd (nM), mean",replicates with signal,empty controls
GFDLNEYGIS,VIYADGVRTAYAESVK,GQNAGTFDV,En_Gen,nd,0 of 6,0 of 18
GQDLAEYGIS,VIYADGKRTYYAQDVK,GTNVGQGDT,En_Gibbs,nd,0 of 6,0 of 18
GFDLNEYGIS,VIYADGMRTFYADSVK,GNQAGTFDL,En_Gen,-0.48,6 of 6,0 of 18
GFDLDEYGIS,VIYADGMRTFYADSVK,GETAGTFDI,En_Gen,-0.27,6 of 6,0 of 18
GFDLNEYGIS,VIYADGMRTYYADSVK,GNVAGTFDM,En_Gen,-0.46,6 of 6,0 of 18
GFDLNEYGIS,VIYADGMRTSYADSVK,GEVAGTFDM,En_Gen,0.40,6 of 6,1 of 18
GFTINSYGIS,VIYSDGRRTFYSDSVK,GNAAGTFDS,GPLM_HC,1.12,5 of 6,0 of 18
GFSLNSYGIS,VIYSDGRRTFYVDSVK,GRLAGTFDT,GP_Gibbs,1.36,5 of 6,2 of 18